The results in this text go back to patent EP3771713A1 (priority 2019, dated 2021).

Chains of the proteins cited; added tags and fusions are not shown.
UniProt P34972, whole entry, looked up: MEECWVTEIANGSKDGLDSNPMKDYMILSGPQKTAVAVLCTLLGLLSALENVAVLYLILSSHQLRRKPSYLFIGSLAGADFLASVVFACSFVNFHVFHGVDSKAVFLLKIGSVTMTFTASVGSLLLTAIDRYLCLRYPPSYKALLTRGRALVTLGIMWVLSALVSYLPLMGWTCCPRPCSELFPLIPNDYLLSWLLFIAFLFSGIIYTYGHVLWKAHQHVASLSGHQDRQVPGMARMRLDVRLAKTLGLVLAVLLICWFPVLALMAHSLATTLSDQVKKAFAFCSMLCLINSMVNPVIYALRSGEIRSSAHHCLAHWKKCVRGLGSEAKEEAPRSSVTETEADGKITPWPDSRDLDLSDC
UniProt P21554, whole entry, looked up: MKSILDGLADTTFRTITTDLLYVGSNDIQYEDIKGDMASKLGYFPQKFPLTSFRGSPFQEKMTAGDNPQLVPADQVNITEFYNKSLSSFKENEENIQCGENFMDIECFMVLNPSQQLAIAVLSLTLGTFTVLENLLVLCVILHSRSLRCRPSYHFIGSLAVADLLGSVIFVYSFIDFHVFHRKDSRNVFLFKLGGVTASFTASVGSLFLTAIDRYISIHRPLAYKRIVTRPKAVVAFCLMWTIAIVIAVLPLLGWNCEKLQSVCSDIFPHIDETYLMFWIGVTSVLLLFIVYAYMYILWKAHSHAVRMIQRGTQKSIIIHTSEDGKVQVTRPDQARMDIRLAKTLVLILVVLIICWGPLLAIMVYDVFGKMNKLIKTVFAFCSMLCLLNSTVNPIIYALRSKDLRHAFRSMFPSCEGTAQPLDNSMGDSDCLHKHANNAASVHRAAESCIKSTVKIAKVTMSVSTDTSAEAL

Assay [1] has as its system murine microglial cell line N9. The experiment in a line: Microglia activation: LPS-activated N9 cells, M1/M2 markers (Griess reaction, western blot). Particulars: 100 ng/mL LPS, 1-5 µM compound, 24 h. Format: cell-based.
A further assay has as its target hCB2R (Homo sapiens, UniProt P34972). Particulars: U266 cells, 50 µM, 2 h, compared to the vehicle.
The target in a further assay is hCB1R (Homo sapiens, UniProt P21554). Nature of the assay: Radioligand binding ([^3H]CP 55,940) at hCB1R, membranes of CHO cells. Particulars: 10 µM of the compound.

Each structure is given as a SMILES string.

For `CCOc1ccc(Cc2nc3cc(C(=O)N(CC)CC)ccc3n2CCC(C)C)cc1`, in assay [1], the “NO release / nitrite accumulation” value is listed as “reduced”. Besides, in assay [1] (M1 marker), the IL1β release result was “significantly decrease” and the iNOS expression result was “significantly decrease”. For the same molecule, in assay [1] (M2 marker), the TGFβ2 expression result is recorded as “not reduced” and the TREM2 expression entry is “not reduced”. For the same molecule, on hCB2R, the MIF gene expression entry is reported as “reduced” and the STAT-3 gene expression entry is “reduced”. The “[^3H]CP 55,940 displ. @10 µM hCB1R” value on hCB1R is reported as 24%.
